Reference: patent US20250255882A1, “TREATMENT OF CARDIAC CONDITION RELATED COGNITIVE DYSFUNCTION” (The Trustees of Columbia University in the City of New York, priority 2024, published 2025)

System: mouse model of HF (myocardial infarction, MI)
Assay: novel object recognition test (hippocampal-dependent short-term memory)
Format: in vivo
Settings: MI mice, treated; MI 15%±4%, SHAM 48%±5%
Text: One-way analysis of variance (ANOVA) was used to compare the difference between the six groups in FIGS. 2B, 2C, 2E and 2F. Tukey's test was used for multiple comparisons; two-way ANOVA was used in FIG. 2D. […] All statistical tests were two sided with the data derived from biologically independent samples.
Next, a novel object recognition test was used to evaluate hippocampal-dependent short-term memory. (see Liu, X. et al. Role of leaky neuronal ryanodine receptors in stress-induced cognitive dysfunction. Cell 150, 1055-1067 (2012); and Bevins, R. A. & Besheer, J. Object recognition in rats and mice: a one-trial non-matching-to-sample learning task to study ‘recognition memory’. Nat. Protoc. 1, 1306-1311 (2006)).

Compound: COc1ccc2c(c1)CN(C)CCS2 [S107]
- discrimination index: 46%±4%
